Values of other authors, collected in patent publication US9918467B2, “Anti-microbial disinfectant wipe and method of use” (Microlin, LLC, priority 2013, dated 2018).

Settings: single silver compound used as silver ion source; aqueous

Substance: silver salicylate
- solubility for the compound: 950 µg/mL
